Values quoted from earlier work in US5641744A, “Treatment of diabetes mellitus” (Amylin Pharmaceuticals, Inc., priority 1987, dated 1997).

How the values were obtained:
[1] = administered to rats
islet B cells = details: a number of model systems

Substance: calcitonin gene related peptide (ACDTATCVTHRLAGLLSRSGGVVKNNFVPTNVGSKAF; Calcitonin gene-related peptide 1; UniProt P06881 83-119, looked up) [CGRP, peptide structurally similar to amylin; human CGRP-2 has 46% identity]
- effects on blood pressure and blood catecholamine levels [1]: significant effects
- rate of glucose induced insulin secretion (islet B cells): modulate
